Reference: patent US8691818B2, “Cyclic triazo and diazo sodium channel blockers” (University Of Greenwich, priority 2008, dated 2014)

Tested on: Sodium Channel, Site 2
Type: binding, Wistar Rat

Q: How did the “[3H]BTX-B binding % inhibition (@ 10 μM)” value turn out when `Nc1nnc(-c2cccc(Cl)c2Cl)c(N)n1` [CEN-1, Lamotrigine, reference compound] was run?
A: The value was −28%.
